Test system: fentanyl-induced hyperlocomotion
Assay: Lower doses of P6AS, naloxone and TetM1 as countermeasures to fentanyl-induced hyperlocomotion, Experiment #2
Conditions: 15 minute reversal; fentanyl 0.1 mg/kg; P6AS 15 and 5 mg/kg, TetM1 11.81 mg/kg, Naloxone 1 mg/kg

SMILES: C=CCN1CC[C@]23c4c5ccc(O)c4O[C@H]2C(=O)CC[C@@]3(O)[C@H]1C5
- comparison of reversal between countermeasures (locomotion counts): no statistically significant differences

From patent US20230174468A1, “SULFATED PILLARARENES, METHODS OF MAKING SAME, AND USES THEREOF” (priority 2007, published 2023)
